Test results taken from BindingDB's records for doi:10.1007/s00210-004-0951-4 (Vernalis Research, 2004).
pKi: −log10 of the molar value.

The chains behind the UniProt entries cited, without tags or fusion partners. Where a name states a change or a piece, a line headed by the entry shows the natural chain unless it says otherwise.
UniProt P28223, whole entry: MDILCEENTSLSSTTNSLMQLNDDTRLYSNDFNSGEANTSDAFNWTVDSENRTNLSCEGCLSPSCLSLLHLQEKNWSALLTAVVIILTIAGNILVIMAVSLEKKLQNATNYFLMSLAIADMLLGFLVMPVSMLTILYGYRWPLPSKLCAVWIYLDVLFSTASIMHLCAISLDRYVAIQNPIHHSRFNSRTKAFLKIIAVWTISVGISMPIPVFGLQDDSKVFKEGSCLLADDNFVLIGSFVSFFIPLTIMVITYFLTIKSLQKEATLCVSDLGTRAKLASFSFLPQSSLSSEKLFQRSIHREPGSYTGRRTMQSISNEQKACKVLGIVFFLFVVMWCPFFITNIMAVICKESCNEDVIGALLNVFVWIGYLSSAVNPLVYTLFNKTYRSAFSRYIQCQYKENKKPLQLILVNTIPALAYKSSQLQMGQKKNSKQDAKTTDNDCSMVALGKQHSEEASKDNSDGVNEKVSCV
UniProt P41595, whole entry: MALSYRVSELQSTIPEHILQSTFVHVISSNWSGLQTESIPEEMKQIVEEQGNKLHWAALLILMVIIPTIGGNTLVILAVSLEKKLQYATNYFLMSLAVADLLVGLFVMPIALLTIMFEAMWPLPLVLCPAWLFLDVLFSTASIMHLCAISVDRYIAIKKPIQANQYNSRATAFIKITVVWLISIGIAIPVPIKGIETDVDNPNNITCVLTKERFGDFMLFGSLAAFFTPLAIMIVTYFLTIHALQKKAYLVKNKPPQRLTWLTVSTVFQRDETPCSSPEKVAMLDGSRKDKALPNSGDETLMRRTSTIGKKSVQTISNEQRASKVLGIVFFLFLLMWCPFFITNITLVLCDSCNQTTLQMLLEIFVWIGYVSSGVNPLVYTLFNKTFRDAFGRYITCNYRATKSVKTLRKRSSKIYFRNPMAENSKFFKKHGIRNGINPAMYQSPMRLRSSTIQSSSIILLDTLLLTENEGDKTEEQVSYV
UniProt P28335: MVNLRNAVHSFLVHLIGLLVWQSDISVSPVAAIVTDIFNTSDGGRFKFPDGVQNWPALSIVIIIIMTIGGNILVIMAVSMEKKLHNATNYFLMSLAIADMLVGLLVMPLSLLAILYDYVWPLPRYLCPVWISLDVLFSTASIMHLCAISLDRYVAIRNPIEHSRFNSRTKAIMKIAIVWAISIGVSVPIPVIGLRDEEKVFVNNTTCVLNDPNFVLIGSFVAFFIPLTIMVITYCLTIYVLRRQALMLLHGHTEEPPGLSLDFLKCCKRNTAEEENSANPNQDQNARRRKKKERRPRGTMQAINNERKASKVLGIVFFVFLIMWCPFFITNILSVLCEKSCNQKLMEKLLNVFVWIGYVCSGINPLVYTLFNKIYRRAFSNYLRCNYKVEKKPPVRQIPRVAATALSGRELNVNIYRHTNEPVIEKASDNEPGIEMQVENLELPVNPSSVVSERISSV

Tests used:
[1] = target: 5-hydroxytryptamine receptor 2A (Homo sapiens, UniProt P28223)
[2] = target: 5-hydroxytryptamine receptor 2B (Homo sapiens, UniProt P41595)
[3] = target: 5-hydroxytryptamine receptor 2C (Homo sapiens, UniProt P28335)

SMILES	pKi [1]	pKi [2]	pKi [3]
CCCN1CCCC2Cc3[nH]ncc3CC21 (stereo unspecified) [NSC_55397]	5.48		
CC(N)Cc1c[nH]c2ccc(OCc3cccs3)cc12 (stereo unspecified) [NSC_5311036]		7.33	
Clc1cccc(N2CCNCC2)c1 [mCPP]	7.26	7.39	7.85
CSc1ccc2c(c1)C(N1CCN(C)CC1)Cc1ccccc1S2 (stereo unspecified) [methanesulfonic acid;1-methyl-4-(3-methylsulfanyl-5,6-dihydrobenzo[b][1]benzothiepin-5-yl)piperazine]		8.68	
